In US20240336909:

Legend:
[1] = tested on: AxCT mask27 EpCAM H90.2 L059 version 1
[2] = tested on: AxCT mask27 EpCAM H90.2 L060 version 1
[3] = tested on: AxCT mask27 EGFR EH104 L059 version 1
[4] = tested on: AxCT mask27 EpCAM H90.2 L075 version 1
[5] = tested on: AxCT mask27 EGFR EH104 L057 version 1
[6] = tested on: AxCT mask27 EGFR EH104 L068 version 1
[7] = tested on: AxCT mask27 EGFR EH104 L065 version 1
[8] = tested on: AxCT mask27 EpCAM H90.2 L063 version 1
[9] = tested on: AxCT mask27 EGFR EH104 L061 version 1
[10] = tested on: AxCT mask27 EpCAM H90.2 L064 version 1
[11] = tested on: AxCT mask27 EGFR EH104 L055 version 1
[12] = tested on: AxCT mask27 EpCAM H90.2 L061 version 1
[13] = tested on: AxCT mask27 EGFR EH104 L056 version 1
[14] = tested on: AxCT mask27 EGFR EH104 L066 version 1
[15] = tested on: AxCT mask27 EGFR EH104 L064 version 1
[16] = tested on: AxCT mask27 EpCAM H90.2 L041 version 1
[17] = tested on: AxCT mask27 EGFR EH104 L001 version 1
[18] = tested on: AxCT mask27 EGFR EH104 L073 version 1
[19] = tested on: AxCT mask27 EGFR EH104 L072 version 1
[20] = tested on: AxCT mask27 EGFR EH104 L062 version 1
[21] = tested on: AxCT mask27 EGFR EH104 L040 version 1
[22] = tested on: AxCT mask27 EGFR EH104 L070 version 1
[23] = tested on: AxCT mask27 EGFR EH104 L054 version 1
[24] = tested on: AxCT mask27 EpCAM H90.2 L073 version 1
[25] = tested on: AxCT mask27 EpCAM H90.2 NCLV
[26] = tested on: AxCT mask27 EGFR EH104 L067 version 1
[27] = tested on: AxCT mask27 EpCAM H90.2 L076 version 1
[28] = tested on: AxCT mask27 EGFR EH104 L069 version 1
[29] = tested on: AxCT mask27 EGFR EH104 L041 version 1
[30] = tested on: AxCT mask27 EpCAM H90.2 L040 version 1
[31] = tested on: AxCT mask27 EGFR EH104 L058 version 1
[32] = tested on: AxCT mask27 EpCAM H90.2 L043 version 1
[33] = tested on: AxCT mask27 EpCAM H90 L001 version 1
[34] = tested on: AxCT mask27 EGFR EH104 L043 version 1
[35] = tested on: AxCT mask27 EGFR EH104 L071 version 1
[36] = tested on: AxCT mask27 EGFR EH104 L060 version 1
[37] = tested on: AxCT mask27 EGFR EH104 L063 version 1

Row | Substance | Percent cleavage [1] [%] | Percent cleavage [2] [%] | Percent cleavage [3] [%] | Percent cleavage [4] [%] | Percent cleavage [5] [%] | Percent cleavage [6] [%] | Percent cleavage [7] [%] | Percent cleavage [8] [%] | Percent cleavage [9] [%] | Percent cleavage [10] [%] | Percent cleavage [11] [%] | Percent cleavage [12] [%] | Percent cleavage [13] [%] | Percent cleavage [14] [%] | Percent cleavage [15] [%] | Percent cleavage [16] [%] | Percent cleavage [17] [%] | Percent cleavage [18] [%] | Percent cleavage [19] [%] | Percent cleavage [20] [%] | also measured
1 | MMP-13 | 82 | 18 | 49 | 0 | 31 | 52 | 53 | 34 | 43 | 45 | 61 | 77 | 26 | 21 | 24 | 20 | 65 | 18 | 56 | 56 | Percent cleavage [21]: 30%; Percent cleavage [22]: 11%; Percent cleavage [23]: 29%; Percent cleavage [24]: 31%; Percent cleavage [25]: 0%; Percent cleavage [26]: 33%; Percent cleavage [27]: 35%; Percent cleavage [28]: 51%; Percent cleavage [29]: 14%; Percent cleavage [30]: 43%; Percent cleavage [31]: 47%; Percent cleavage [32]: 34%; Percent cleavage [33]: 95%; Percent cleavage [34]: 22%; Percent cleavage [35]: 37%; Percent cleavage [36]: 13%; Percent cleavage [37]: 23%
2 | Urokinase-type Plasminogen Activator | 16 | 9 | 9 | 0 | 0 | 0 | 0 | 19 | 6 | 0 | 24 | 11 | 8 | 0 | 0 | 43 | 0 | 0 | 0 | 13 | Percent cleavage [21]: 22%; Percent cleavage [22]: 0%; Percent cleavage [23]: 7%; Percent cleavage [24]: 0%; Percent cleavage [25]: 0%; Percent cleavage [26]: 0%; Percent cleavage [27]: 0%; Percent cleavage [28]: 0%; Percent cleavage [29]: 28%; Percent cleavage [30]: 39%; Percent cleavage [31]: 10%; Percent cleavage [32]: 61%; Percent cleavage [33]: 0%; Percent cleavage [34]: 40%; Percent cleavage [35]: 0%; Percent cleavage [36]: 0%; Percent cleavage [37]: 13%
